Measurements reported in ChEMBL document CHEMBL6114988, “Design, synthesis and biological evaluation of dual CDK9/PARP inhibitors for the treatment of cancer” (Eur J Med Chem, 2025).

The chains behind the UniProt entries cited, without tags or fusion partners. Where a name states a change or a piece, a line headed by the entry shows the natural chain unless it says otherwise.
UniProt Q9NYV4, whole entry, looked up: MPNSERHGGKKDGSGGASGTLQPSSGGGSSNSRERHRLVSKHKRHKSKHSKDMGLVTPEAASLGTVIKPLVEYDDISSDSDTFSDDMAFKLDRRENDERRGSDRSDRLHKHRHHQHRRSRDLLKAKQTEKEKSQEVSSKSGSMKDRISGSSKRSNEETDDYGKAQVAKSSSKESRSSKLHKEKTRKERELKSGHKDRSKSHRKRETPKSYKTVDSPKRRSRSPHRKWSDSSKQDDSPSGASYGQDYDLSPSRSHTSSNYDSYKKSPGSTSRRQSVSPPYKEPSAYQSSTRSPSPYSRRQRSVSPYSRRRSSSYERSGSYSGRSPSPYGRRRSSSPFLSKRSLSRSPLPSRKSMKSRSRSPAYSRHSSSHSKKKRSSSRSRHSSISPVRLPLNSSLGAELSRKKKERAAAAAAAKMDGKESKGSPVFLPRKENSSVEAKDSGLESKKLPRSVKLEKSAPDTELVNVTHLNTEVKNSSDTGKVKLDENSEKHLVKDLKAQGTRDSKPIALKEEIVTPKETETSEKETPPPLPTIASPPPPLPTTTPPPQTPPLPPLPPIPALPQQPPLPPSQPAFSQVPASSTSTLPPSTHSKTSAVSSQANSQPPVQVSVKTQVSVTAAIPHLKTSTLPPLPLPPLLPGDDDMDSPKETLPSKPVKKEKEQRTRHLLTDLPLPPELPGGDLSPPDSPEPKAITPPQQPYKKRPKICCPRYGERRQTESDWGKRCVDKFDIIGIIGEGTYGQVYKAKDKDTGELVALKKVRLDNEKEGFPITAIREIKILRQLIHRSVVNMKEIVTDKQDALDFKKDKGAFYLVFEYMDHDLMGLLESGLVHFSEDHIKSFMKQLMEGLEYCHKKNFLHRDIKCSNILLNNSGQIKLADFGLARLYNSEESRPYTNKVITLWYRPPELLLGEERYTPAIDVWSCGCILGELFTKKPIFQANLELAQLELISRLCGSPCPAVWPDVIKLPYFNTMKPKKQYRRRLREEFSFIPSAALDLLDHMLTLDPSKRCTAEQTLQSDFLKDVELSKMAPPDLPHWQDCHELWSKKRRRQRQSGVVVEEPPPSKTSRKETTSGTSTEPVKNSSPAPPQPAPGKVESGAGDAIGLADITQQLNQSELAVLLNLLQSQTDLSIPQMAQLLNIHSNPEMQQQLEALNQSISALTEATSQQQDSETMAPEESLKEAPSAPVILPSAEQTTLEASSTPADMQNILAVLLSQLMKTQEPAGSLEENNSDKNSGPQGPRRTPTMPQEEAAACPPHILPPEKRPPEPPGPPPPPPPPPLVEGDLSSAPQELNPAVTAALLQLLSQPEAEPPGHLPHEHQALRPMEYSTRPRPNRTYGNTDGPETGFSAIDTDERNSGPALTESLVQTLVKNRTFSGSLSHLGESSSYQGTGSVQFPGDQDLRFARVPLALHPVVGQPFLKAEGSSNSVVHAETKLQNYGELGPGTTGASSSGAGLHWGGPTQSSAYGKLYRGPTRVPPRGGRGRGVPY
UniProt P06493, whole entry, looked up: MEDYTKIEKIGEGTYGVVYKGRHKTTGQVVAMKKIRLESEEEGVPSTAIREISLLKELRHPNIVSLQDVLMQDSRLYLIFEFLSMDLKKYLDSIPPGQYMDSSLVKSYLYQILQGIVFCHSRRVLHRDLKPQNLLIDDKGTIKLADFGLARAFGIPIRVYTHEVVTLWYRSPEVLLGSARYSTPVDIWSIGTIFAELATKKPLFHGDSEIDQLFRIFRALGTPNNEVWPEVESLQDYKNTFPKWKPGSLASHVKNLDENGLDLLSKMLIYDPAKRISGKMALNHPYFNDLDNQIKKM
UniProt P49336: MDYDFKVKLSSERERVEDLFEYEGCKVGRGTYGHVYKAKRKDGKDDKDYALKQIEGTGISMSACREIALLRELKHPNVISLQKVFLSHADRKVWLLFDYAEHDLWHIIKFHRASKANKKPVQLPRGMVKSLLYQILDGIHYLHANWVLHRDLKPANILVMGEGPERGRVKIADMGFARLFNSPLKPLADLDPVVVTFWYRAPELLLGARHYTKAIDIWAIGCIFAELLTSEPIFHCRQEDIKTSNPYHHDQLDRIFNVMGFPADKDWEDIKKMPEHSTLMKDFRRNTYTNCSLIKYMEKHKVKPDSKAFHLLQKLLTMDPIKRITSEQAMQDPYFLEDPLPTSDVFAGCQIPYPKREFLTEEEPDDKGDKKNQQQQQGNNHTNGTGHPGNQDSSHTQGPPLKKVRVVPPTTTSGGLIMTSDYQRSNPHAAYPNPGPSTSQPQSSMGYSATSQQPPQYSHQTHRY
UniProt Q96Q40: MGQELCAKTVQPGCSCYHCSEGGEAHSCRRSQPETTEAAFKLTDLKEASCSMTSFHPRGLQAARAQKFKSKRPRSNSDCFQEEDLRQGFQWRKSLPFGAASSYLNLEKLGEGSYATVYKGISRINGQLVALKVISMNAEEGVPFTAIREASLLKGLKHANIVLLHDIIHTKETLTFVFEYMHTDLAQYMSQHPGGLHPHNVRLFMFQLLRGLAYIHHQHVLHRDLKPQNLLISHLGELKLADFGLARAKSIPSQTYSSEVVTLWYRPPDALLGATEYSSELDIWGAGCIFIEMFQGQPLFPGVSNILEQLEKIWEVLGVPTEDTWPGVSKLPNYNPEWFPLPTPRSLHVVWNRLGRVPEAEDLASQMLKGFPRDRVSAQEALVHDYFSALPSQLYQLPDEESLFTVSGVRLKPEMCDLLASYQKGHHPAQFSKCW
UniProt Q8ND76: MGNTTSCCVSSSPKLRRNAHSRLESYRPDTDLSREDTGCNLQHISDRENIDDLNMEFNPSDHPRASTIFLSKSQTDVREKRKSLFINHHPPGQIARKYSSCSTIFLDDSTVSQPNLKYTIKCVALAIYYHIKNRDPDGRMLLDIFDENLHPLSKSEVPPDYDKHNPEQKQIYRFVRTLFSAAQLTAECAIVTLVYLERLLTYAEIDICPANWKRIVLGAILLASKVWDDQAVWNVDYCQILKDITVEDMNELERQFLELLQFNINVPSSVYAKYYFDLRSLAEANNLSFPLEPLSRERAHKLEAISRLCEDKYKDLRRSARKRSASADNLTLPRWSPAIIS
UniProt O94921: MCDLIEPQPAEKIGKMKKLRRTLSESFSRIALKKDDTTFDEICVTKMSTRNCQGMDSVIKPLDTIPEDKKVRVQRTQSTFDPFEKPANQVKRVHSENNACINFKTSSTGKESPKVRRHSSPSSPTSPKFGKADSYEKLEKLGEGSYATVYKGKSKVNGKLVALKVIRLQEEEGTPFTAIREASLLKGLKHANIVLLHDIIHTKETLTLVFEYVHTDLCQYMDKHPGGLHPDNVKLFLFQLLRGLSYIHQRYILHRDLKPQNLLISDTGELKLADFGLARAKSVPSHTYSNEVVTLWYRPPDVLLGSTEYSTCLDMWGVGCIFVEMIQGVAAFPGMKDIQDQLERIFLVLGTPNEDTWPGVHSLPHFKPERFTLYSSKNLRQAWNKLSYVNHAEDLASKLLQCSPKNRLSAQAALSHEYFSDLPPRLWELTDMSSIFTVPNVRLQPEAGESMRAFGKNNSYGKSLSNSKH
UniProt P51946: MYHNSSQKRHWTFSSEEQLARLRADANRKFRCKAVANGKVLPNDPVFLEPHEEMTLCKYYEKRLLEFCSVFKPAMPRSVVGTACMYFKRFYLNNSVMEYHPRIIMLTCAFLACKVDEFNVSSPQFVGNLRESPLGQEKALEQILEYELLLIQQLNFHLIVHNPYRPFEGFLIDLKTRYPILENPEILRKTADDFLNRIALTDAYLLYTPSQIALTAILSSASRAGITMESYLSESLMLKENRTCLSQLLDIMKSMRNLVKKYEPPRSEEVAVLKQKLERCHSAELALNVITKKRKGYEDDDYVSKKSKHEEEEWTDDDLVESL
UniProt P50613: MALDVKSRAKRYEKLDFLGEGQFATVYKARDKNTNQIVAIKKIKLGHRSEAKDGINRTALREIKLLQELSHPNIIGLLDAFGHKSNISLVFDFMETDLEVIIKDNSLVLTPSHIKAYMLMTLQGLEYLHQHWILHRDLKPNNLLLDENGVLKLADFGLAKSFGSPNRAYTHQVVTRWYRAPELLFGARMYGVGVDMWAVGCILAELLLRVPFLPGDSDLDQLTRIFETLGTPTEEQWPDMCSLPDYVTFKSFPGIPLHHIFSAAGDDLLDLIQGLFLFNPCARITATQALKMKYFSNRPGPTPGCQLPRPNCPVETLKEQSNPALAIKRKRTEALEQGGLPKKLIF
UniProt P11802: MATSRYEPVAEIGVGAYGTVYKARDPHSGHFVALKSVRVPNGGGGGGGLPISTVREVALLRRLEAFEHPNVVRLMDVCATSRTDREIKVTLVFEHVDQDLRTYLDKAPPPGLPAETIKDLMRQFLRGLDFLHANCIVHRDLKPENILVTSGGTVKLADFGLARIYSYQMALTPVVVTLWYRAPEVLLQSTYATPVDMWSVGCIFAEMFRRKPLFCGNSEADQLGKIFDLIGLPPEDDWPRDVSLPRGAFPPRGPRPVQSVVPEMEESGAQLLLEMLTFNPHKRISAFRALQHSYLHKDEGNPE
UniProt Q15078: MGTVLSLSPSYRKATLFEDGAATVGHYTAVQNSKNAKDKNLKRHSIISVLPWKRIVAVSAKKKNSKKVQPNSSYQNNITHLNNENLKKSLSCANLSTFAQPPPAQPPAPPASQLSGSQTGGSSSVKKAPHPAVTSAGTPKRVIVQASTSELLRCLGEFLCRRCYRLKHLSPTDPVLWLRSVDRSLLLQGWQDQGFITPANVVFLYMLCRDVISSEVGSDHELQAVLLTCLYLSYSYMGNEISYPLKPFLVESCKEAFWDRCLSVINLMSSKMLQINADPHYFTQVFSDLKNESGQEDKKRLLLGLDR
UniProt Q00536: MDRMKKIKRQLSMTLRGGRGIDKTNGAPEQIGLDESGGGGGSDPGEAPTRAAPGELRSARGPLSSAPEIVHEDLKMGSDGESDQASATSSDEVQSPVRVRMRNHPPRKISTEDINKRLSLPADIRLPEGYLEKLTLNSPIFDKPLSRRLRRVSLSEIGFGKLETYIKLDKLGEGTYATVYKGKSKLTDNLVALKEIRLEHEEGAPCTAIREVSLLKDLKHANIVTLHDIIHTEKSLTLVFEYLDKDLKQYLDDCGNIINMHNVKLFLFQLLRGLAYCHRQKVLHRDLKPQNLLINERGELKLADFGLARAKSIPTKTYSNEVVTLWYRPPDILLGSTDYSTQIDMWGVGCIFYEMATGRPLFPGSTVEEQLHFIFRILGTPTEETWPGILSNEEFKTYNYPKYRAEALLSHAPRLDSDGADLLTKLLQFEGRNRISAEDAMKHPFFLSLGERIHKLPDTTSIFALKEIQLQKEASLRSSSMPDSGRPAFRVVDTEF
UniProt Q00534: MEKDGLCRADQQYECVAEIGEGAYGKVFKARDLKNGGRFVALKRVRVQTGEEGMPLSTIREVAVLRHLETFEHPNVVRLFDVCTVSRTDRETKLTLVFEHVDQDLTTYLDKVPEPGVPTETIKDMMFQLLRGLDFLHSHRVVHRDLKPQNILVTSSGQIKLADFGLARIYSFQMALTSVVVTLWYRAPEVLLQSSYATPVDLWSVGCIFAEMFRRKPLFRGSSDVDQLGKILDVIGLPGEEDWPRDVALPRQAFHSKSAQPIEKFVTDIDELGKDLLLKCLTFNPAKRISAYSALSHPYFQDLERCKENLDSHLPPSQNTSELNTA
UniProt P24864, whole entry, looked up: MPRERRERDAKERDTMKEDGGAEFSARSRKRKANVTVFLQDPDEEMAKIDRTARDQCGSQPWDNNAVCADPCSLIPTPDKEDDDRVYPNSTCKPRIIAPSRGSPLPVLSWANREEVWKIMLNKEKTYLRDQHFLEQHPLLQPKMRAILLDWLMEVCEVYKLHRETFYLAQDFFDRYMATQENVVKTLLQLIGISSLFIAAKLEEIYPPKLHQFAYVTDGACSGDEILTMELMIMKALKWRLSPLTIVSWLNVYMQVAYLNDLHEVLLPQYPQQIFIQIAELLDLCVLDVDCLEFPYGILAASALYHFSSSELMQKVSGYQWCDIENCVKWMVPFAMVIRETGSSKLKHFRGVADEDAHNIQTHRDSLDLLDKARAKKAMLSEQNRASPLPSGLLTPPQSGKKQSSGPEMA
UniProt Q07002: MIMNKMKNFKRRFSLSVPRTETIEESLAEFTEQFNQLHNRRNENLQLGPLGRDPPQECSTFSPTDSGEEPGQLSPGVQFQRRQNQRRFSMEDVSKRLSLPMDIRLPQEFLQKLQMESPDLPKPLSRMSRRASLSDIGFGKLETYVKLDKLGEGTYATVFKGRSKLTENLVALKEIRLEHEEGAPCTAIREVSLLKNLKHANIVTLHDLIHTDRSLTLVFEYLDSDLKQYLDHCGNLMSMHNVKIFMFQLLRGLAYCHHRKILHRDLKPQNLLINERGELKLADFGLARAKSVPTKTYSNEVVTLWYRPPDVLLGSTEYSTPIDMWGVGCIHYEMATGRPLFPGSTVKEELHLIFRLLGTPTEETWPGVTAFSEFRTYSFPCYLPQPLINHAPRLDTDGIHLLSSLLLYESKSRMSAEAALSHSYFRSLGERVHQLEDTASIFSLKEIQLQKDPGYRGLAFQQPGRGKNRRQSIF

Experiments:
[1] = molecular target: T1, CDK12/Cyclin K (Homo sapiens) (UniProt O75909+Q9NYV4); conditions: dose 200.0 nM, time 70.0 min
[2] = molecular target: CDK1/Cyclin A (Homo sapiens) (UniProt P06493+P20248); conditions: dose 200.0 nM, time 70.0 min
[3] = molecular target: CDK8/Cyclin C (Homo sapiens) (UniProt P49336+P24863); conditions: dose 200.0 nM, time 70.0 min
[4] = molecular target: CDK15/Cyclin Y (Homo sapiens) (UniProt Q96Q40+Q8ND76); conditions: dose 200.0 nM, time 70.0 min
[5] = molecular target: T1, CDK12/Cyclin K (Homo sapiens); conditions: dose 200.0 nM, time 70.0 min; remark: listed apart in the source
[6] = molecular target: Cyclin-dependent kinase 14/Cyclin-Y (Homo sapiens) (UniProt O94921+Q8ND76); conditions: dose 200.0 nM, time 70.0 min
[7] = molecular target: CDK7/Cyclin H/MNAT1 (Homo sapiens) (UniProt P51946+P50613+P51948); conditions: dose 200.0 nM, time 70.0 min
[8] = molecular target: Cyclin-dependent kinase 4/cyclin D1 (Homo sapiens) (UniProt P11802+P24385); conditions: dose 200.0 nM, time 70.0 min
[9] = species: Homo sapiens; conditions: dose 200.0 nM, time 10.0 min
[10] = molecular target: Cyclin-dependent kinase 5/CDK5 activator 1 (Homo sapiens) (UniProt Q00535+Q15078); conditions: dose 200.0 nM, time 70.0 min
[11] = molecular target: Cyclin-Y/Cyclin-dependent kinase 16 (Homo sapiens) (UniProt Q00536+Q8ND76); conditions: dose 200.0 nM, time 70.0 min
[12] = molecular target: CDK6/cyclin D1 (Homo sapiens) (UniProt P24385+Q00534); conditions: dose 200.0 nM, time 70.0 min
[13] = molecular target: CDK3/Cyclin E (Homo sapiens) (UniProt P24864+Q00526); conditions: dose 200.0 nM, time 70.0 min
[14] = molecular target: Cyclin-dependent kinase 2/cyclin E1 (Homo sapiens) (UniProt P24864+P24941); conditions: dose 200.0 nM, time 70.0 min
[15] = molecular target: CDK18/Cyclin Y (Homo sapiens) (UniProt Q07002+Q8ND76); conditions: dose 200.0 nM, time 70.0 min

inhibition [1]: 7.17% | inhibition [2]: 5.09% | inhibition [3]: -5.12% | inhibition [4]: -5.6% | inhibition [5]: 6.17% | inhibition [6]: -6.59% | inhibition [7]: -4.16% | inhibition [8]: 1.65% | inhibition [9]: -2.74% | inhibition [10]: -1.9% | inhibition [11]: 4.84% | inhibition [12]: -4.81% | inhibition [13]: 4.45% | inhibition [14]: 5.52% | inhibition [15]: 3.06%
Structure (SMILES): COc1ccc(-c2cc(Nc3cc(CN4CCN(C(=O)c5cc(Cc6n[nH]c(=O)c7ccccc67)ccc5F)CC4)ccn3)ncn2)c(OC)c1
